Test results taken from the NIST ThermoML archive (doi:10.1016/j.fluid.2013.11.031).

Assay: xn = mol fraction of the nth substance listed
Settings: Liquid, Vibrating tube method

CCCCOCCCC [dibutyl ether] + CC(C)O
mass density [kg/m3]
Settings | x1 = 0.1499 | x1 = 0.3251 | x1 = 0.508 | x1 = 0.675 | x1 = 0.8477
333.15 K, 100 kPa | 743.4 | 739.2 | 736.2 | 734.5 | 733.3
333.15 K, 10000 kPa | 754.1 | 749.9 | 747 | 745.2 | 744
333.15 K, 20000 kPa | 763.5 | 759.4 | 756.6 | 754.8 | 753.5
333.15 K, 30000 kPa | 771.9 | 768 | 765.1 | 763.3 | 762
333.15 K, 40000 kPa | 779.6 | 775.7 | 772.8 | 771 | 769.7
333.15 K, 50000 kPa | 786.7 | 782.8 | 780 | 778.1 | 776.8
333.15 K, 60000 kPa | 793.2 | 789.4 | 786.6 | 784.7 | 783.3
333.15 K, 70000 kPa | 799.2 | 795.5 | 792.7 | 790.8 | 789.4
333.15 K, 80000 kPa | 805.1 | 801.4 | 798.6 | 796.6 | 795.3
333.15 K, 90000 kPa | 810.8 | 807.1 | 804.3 | 802.4 | 801
333.15 K, 100000 kPa | 816 | 812.2 | 809.4 | 807.5 | 806.1
333.15 K, 110000 kPa | 820.8 | 817 | 814.2 | 812.3 | 810.9
333.15 K, 120000 kPa | 824.9 | 821.2 | 818.4 | 816.5 | 815.1
333.15 K, 130000 kPa | 829.6 | 826 | 823.1 | 821.2 | 819.8
333.15 K, 140000 kPa | 833.9 | 830.2 | 827.4 | 825.5 | 824.1
353.15 K, 100 kPa | 722.4 | 718 | 715.8 | 714.6 | 714.2
353.15 K, 10000 kPa | 734.9 | 730.6 | 728.3 | 727 | 726.5
353.15 K, 20000 kPa | 745.7 | 741.5 | 739.2 | 737.8 | 737.2
353.15 K, 30000 kPa | 755.3 | 751.1 | 748.8 | 747.3 | 746.7
353.15 K, 40000 kPa | 763.8 | 759.7 | 757.4 | 755.8 | 755.2
353.15 K, 50000 kPa | 771.6 | 767.5 | 765.2 | 763.7 | 762.9
353.15 K, 60000 kPa | 778.6 | 774.6 | 772.4 | 770.7 | 770
353.15 K, 70000 kPa | 785.3 | 781.3 | 779 | 777.4 | 776.6
353.15 K, 80000 kPa | 791.6 | 787.6 | 785.4 | 783.7 | 782.9
353.15 K, 90000 kPa | 797.4 | 793.5 | 791.2 | 789.6 | 788.7
353.15 K, 100000 kPa | 802.8 | 798.9 | 796.7 | 795 | 794.1
353.15 K, 110000 kPa | 808 | 804.1 | 801.9 | 800.2 | 799.3
353.15 K, 120000 kPa | 813 | 809.1 | 807 | 805.2 | 804.3
353.15 K, 130000 kPa | 817.8 | 813.9 | 811.7 | 809.9 | 809
353.15 K, 140000 kPa | 822.3 | 818.5 | 816.3 | 814.5 | 813.6
